Literature values as cited in patent US8404645B2, “Stable formulations of amylin and its analogues” (Novo Nordisk AS, priority 2007, dated 2013).

Details: treated test animals; provoking marked hyperlactemia followed by hyperglycemia

Structure (SMILES): CC[C@H](C)[C@H](NC(=O)[C@@H]1CCCN1C(=O)CNC(=O)[C@H](Cc1ccccc1)NC(=O)[C@H](CC(N)=O)NC(=O)[C@H](CC(N)=O)NC(=O)[C@H](CO)NC(=O)[C@H](CO)NC(=O)[C@H](Cc1c[nH]cn1)NC(=O)[C@@H](NC(=O)[C@H](CC(C)C)NC(=O)[C@H](Cc1ccccc1)NC(=O)[C@H](CC(N)=O)NC(=O)[C@H](C)NC(=O)[C@H](CC(C)C)NC(=O)[C@H](CCCNC(=N)N)NC(=O)[C@H](CCC(N)=O)NC(=O)[C@@H](NC(=O)[C@H](C)NC(=O)[C@@H]1CSSC[C@H](NC(=O)[C@@H](N)CCCCN)C(=O)N[C@@H](CC(N)=O)C(=O)N[C@@H]([C@@H](C)O)C(=O)N[C@@H](C)C(=O)N[C@@H]([C@@H](C)O)C(=O)N1)[C@@H](C)O)C(C)C)C(=O)N[C@@H](CC(C)C)C(=O)N1CCC[C@H]1C(=O)N1CCC[C@H]1C(=O)N[C@H](C(=O)N[C@@H](CC(N)=O)C(=O)N[C@H](C(=O)NCC(=O)N[C@@H](CO)C(=O)N[C@@H](CC(N)=O)C(=O)N[C@H](C(=O)N[C@@H](Cc1ccc(O)cc1)C(N)=O)[C@@H](C)O)C(C)C)[C@@H](C)O [Pro25 Pro28 Pro29-h-amylin]
- Amylin activity in vivo: show amylin activity in vivo
